Data on 3 molecules can be found in ChEMBL document CHEMBL1130381, “Synthesis and evaluation of trimetoquinol derivatives: novel thromboxane A2/prostaglandin H2 antagonists with diminished beta-adrenergic agonist activity” (J Med Chem, 1997).

The species named for this assay is Homo sapiens. In words: Potency ratio of human platelet aggregation. It is filed as functional.
As for `O=[N+]([O-])c1cc(CC2NCCc3cc(O)c(O)cc32)ccc1O` (stereo not drawn), the Potency ratio is on record as 0.91.

On to `Nc1ccc(CC2NCCc3cc(O)c(O)cc32)cc1` (stereo not drawn), for which the Potency ratio was 0.00891.

Consider `O=[N+]([O-])c1ccc(CC2NCCc3cc(O)c(O)cc32)cc1` (stereo not drawn), for which the Potency ratio is 0.0257.
